# Experimental data as given in ChEMBL document CHEMBL4346765, “Design, synthesis and biological evaluation of novel dithiocarbamate-substituted diphenylaminopyrimidine derivatives as BTK inhibitors” (Bioorg Med Chem, 2019).
# Experiments:
# [1] = system: Ramos; assay: Antiproliferative activity against human Ramos cells assessed as reduction in cell growth incubated for 48 hrs by MTS assay; format: functional, cell-based
# [2] = system: Raji; assay: Antiproliferative activity against human Raji cells assessed as reduction in cell growth incubated for 48 hrs by MTS assay; format: functional, cell-based
smiles,measurement,setting,value
C=CC(=O)Nc1cccc(Nc2nc(Nc3ccc(OCCSC(=S)NCc4cccnc4)cc3)ncc2F)c1,Activity,[1],Dose-dependent effect
same,Activity,[2],Dose-dependent effect
